Reference: ChEMBL document CHEMBL1143418, “Colistin methanesulfonate against multidrug-resistant Acinetobacter baumannii in an in vitro pharmacodynamic model” (2007)

System: Acinetobacter baumannii
Assay: Antibacterial activity against multidrug-resistant Acinetobacter baumannii 06-74 isolate by CLSI microdilution test
Format: functional

Sequence: COLISTIN SULFATE
- MIC: 0.5 µg/mL
